Data on one substance can be found in patent US20020173481A1.

The chains behind the UniProt entries cited, without tags or fusion partners. Residues count along the entry.
UniProt P01586, 27-166 limits assumed: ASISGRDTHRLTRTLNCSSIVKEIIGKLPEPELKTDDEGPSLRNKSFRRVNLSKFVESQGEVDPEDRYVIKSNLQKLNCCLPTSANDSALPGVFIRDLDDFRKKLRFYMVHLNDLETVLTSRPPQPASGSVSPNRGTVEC

The target in this assay is endogenous IL-3 receptor of 32Dcl3 cells. In words: cell-based or functional assay.

Consider “Mouse IL-3 (from UniProt P01586 27-166) (ligand)”, for which the kinase activity of Bmx in 32Dcl3 cells came to 2.2 fold.
